Data from ChEMBL document CHEMBL1649517, “Effect of MexXY overexpression on ceftobiprole susceptibility in Pseudomonas aeruginosa” (2009).

What was measured:
[1] = tested on: Pseudomonas aeruginosa; settings: isolate OC16830
[2] = tested on: Pseudomonas aeruginosa; settings: isolate OC16827

GENTAMICIN
MIC [1]: 0.5 mg/L | MIC [2]: 0.5 mg/L
